Patent US12043670B2, “Anti-BCMA antibody-drug conjugates and methods of use” (Eisai R&D Management Co., Ltd., priority 2020, dated 2024)

Tested on: OPM2 tumors
Experiment: In vivo mRNA splicing modulation (NanoString), OPM2 tumors
Set-up: species or system mouse
Settings: 10 mg/kg, 24 hours and 48 hours post-dose
Description: Two human myeloma cell lines, OPM2 and MOLP8, were subcutaneously inoculated into female CB17-Scid mice (5×10^6 cells/mouse), and tumors were allowed to reach ˜300-500 mm^3 in volume prior to randomization into treatment groups. Mice were then randomly assigned to receive a single intravenous dose of either unconjugated reference antibody (AB200) or an anti-BCMA ADC. At predetermined time points after dosing, mice were euthanized according to institutionally approved protocols and tumor tissue was collected. Tumor fragments were then flash-frozen in liquid nitrogen or frozen following incubation in RNAlater preservation solution.
Total tumor RNA was isolated from tumor samples using the MagMAX™-96 for Microarrays Total RNA Isolation kit and MagMax instrument according to the manufacturer's instructions. RNA was quantified by UV absorbance on a NanoDrop spectrophotometer. Gene expression analysis was performed on the NanoString nCounter gene expression platform (NanoString Technologies). A custom code set consisting of a 70-gene panel with 61 genes to measure splicing changes induced by ADC and nine housekeeping genes was used (FIG. 5). […]

B1: AB200-ADL5-D4 (conjugate)
heavy: QVQLVQSGAEVKKPGSSVKVSCKASGGTFSNYWMHWVRQAPGQGLEWMGATYRGHSDTYYNQKFKGRVTITADKSTSTAYMELSSLRSEDTAVYYCARGAIYDGYDVLDNWGQGTLVTVSSASTKGPSVFPLAPSSKSTSGGTAALGCLVKDYFPEPVTVSWNSGALTSGVHTFPAVLQSSGLYSLSSVVTVPSSSLGTQTYICNVNHKPSNTKVDKKV[omitted - human IgG1 Fc]
light: DIQMTQSPSSLSASVGDRVTITCSASQDISNYLNWYQQKPGKAPKLLIYYTSNLHSGVPSRFSGSGSGTDFTLTISSLQPEDFATYYCQQYRKLPWTFGQGTKLEIKRTVAAPSVFIFPPSDEQLKSGTASVVCLLNNFYPREAKVQWKVDNALQSGNSQESVTEQDSKDSTYSLSSTLTLSKADYEKHKVYACEVTHQGLSSPVTKSFNRGEC
- splicing modulation in tumors relative to AB200 antibody alone: statistically significant splicing modulation
